Measurements: patent US20260384447A1, “INHIBITORS OF NLRP3” (published 2026)

Sequences of proteins named here, by UniProt entry; tags and fusion partners are left off.
UniProt Q96P20, whole entry: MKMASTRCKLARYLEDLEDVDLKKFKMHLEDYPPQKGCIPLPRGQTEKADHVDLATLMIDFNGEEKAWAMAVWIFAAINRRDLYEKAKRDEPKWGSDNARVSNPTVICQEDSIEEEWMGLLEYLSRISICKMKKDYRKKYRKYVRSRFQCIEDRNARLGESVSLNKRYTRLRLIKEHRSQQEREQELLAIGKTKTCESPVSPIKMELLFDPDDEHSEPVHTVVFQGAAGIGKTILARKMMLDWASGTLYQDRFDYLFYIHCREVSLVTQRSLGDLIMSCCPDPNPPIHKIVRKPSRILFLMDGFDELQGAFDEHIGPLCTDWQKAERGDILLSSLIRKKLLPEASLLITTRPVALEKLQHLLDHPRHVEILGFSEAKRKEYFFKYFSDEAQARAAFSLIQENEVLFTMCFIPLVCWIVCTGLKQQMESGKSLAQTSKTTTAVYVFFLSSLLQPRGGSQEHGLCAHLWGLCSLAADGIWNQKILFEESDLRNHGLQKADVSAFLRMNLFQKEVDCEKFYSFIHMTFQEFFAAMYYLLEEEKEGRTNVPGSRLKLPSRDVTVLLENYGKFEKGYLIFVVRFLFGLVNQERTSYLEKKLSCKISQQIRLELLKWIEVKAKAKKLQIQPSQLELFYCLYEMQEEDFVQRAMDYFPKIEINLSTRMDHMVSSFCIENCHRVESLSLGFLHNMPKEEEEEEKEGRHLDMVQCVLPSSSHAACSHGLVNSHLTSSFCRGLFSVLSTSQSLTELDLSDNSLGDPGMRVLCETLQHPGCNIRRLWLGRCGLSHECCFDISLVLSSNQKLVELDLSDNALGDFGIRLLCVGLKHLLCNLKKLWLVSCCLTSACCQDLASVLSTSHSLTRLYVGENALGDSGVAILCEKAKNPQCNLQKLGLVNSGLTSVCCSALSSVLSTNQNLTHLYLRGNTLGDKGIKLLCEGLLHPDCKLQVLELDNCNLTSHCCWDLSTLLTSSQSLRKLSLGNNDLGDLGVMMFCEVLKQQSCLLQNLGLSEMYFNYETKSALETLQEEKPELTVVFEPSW

Key:
NLRP3 [1] = biological target: T1, NLRP3 (Homo sapiens, UniProt Q96P20); experiment: THP-1 Cells Pyroptosis Assay; details: read-out: THP-1 pyroptosis Assay IC50, 1.0 μg/ml LPS, nigericin 5 μM, resazurin readout, 37 °C
NLRP3 [2] = biological target: T1, NLRP3; experiment: Human Whole Blood IL-1β Release Assay; details: read-out: Human whole blood IL-1β Assay IC50, 1 μg/ml LPS, nigericin 10 μM, IL-1β AlphaLisa, 37 °C

Row | SMILES | IC50 (NLRP3 [1]) [nM] | IC50 (NLRP3 [2]) [nM]
1 | Cc1cc(C(F)(F)F)cc(O)c1-c1cc2c(nn1)N([C@@H]1CCCC[C@H]1O)CCO2 | 30 | 69
2 | CCN1C[C@@H](O)C[C@@H](N2CCOc3cc(-c4c(C)cc(C#N)cc4O)nnc32)C1 | 62 | 151
3 | CCN1CC[C@@H](N2CCOc3cc(-c4c(C)cc(C#N)cc4O)nnc32)C1 | 120 | –
4 | Cc1cc(OC(F)(F)F)cc(O)c1-c1cc2c(nn1)N([C@@H]1CCCC[C@H]1O)CCO2 | 110 | –
5 | Cc1cc2c(c(O)c1-c1cc3c(nn1)N([C@H]1CC[C@H](O)CC1)CCO3)CCO2 | 273 | –
6 | CCN1CCC[C@@H](N2CCOc3c2nnc(-c2ccc(C#N)cc2O)c3C)C1 | 38 | 56
7 | Cc1cc(C#N)cc(O)c1-c1cc2c(nn1)N([C@H]1C[C@@](C)(O)C1)CCO2 | > 1000 | 546

The remaining lines, values ahead:

Row | IC50 (NLRP3 [1]) [nM] | IC50 (NLRP3 [2]) [nM] | SMILES
8 | 42 | 69 | Cc1c(-c2ccc3c(c2O)CCO3)nnc2c1OCCN2[C@@H]1CCCC[C@H]1O
9 | 46 | 140 | Cc1cc(C)c(-c2cc3c(nn2)N([C@@H]2CCCC[C@H]2O)CCO3)c(O)c1
10 | 49 | – | Cc1cc2c(c(O)c1-c1cc3c(nn1)N([C@@H]1CCOC[C@H]1O)CCO3)CCO2
11 | 56 | – | Cc1cc2c(c(O)c1-c1cc3c(nn1)N([C@@H]1CCC[C@H](O)C1)CCO3)CCO2
12 | 81 | – | Cc1cc(C#N)cc(O)c1-c1cc2c(nn1)N([C@@H]1CCCC[C@H]1O)CCO2
